Biological target: Full-length human NaX containing tandem 2x StrepII and 2xFLAG tags at its N-terminus (human) (UniProt Q01118)
Assay: LC-MS/MS of the NaX-containing SEC peak after FLAG and Strep affinity purification, NaX co-expressed with β3

**Q.** For “ATP1A1 a-subunit (Na+/K+-ATPase alpha-1 subunit) (from UniProt P05023 1-1023) (enzyme)”, which #PSMs is on record?
**A.** The #PSMs was 24 PSMs.

**Q.** And the % Coverage?
**A.** The % Coverage was 21%.

— patent publication US20250164502A1, “Mutant Human Nax Proteins and Screening Methods” (Genentech, Inc., priority 2021, published 2025)
